Data set [1] in a line: evaluation of toxicity: mortality and change in body weight after intraperitoneal administration.
The test system of data set [2] is collagen-induced arthritis mouse model. The data set can be described thus: arthritis progression index in collagen-induced arthritis (CIA) mouse model.

Here are results for 1 compound from EP3428179B1, “PEPTIDE FOR PREVENTING OR TREATING INFLAMMATORY DISEASES AND USE THEREOF” (dated 2026).

As for `N=C(N)NCCC[C@H](NC(=O)CNC(=O)[C@H](CC(=O)O)NC(=O)[C@@H](N)CCCNC(=N)N)C(=O)N[C@@H](CC(=O)O)C(=O)NCC(=O)O`, the “mortality of the mouse” value in data set [1] (0.1 µmole, 1 µmole or 10 µmole intraperitoneally) is listed as “not observed”. The “difference in body weight from that of the control” value in data set [1] (at all the concentrations (0.1 µmole, 1 µmole, 10 µmole)) was “did not have a large difference”. The “arthritis progression index versus control mouse” value in data set [2] (at all the concentrations (0.1 µmole, 1 µmole, 10 µmole), Table 3, FIG. 4) was “significantly decreased”. In addition, the “swelling and redness symptoms around the ankle joint” value in data set [2] (visual check, FIG. 3, 1 µmole intraperitoneally three times a week, compared with the control) is “remarkably mitigated”.
